Measurements: patent US20260015632A1, “CULTURE MEDIUM COMBINATION FOR INDUCING DIFFERENTIATION OF PLURIPOTENT STEM CELLS INTO CD34+ HEMATOPOIETIC STEM/PROGENITOR CELLS” (SHENZHEN CELL INSPIRE BIOTECHNOLOGY CO., LTD., priority 2023, published 2026)

Test system: iPSCs
Assay: Optimization of iNK purity and yield, flow cytometry CD56/CD45 and fold expansion
Format: cell-based, human
Protocol: To further improve the differentiation efficiency and cytotoxicity of the obtained NK cells, UM171 was added to the second differentiation medium. Additionally, 1) 10 M SPHK2 inhibitor ABC294640 was added to the second and third differentiation medium, or 2) 75 M nicotinamide adenine dinucleotide (NAD^+), or 0.1 ng/mL HLA-C, or 1000 IU IL-2, or 15 μM SB203580 was added to the fourth differentiation medium. The expression levels of CD56 and CD45 of the obtained NK cells and the cell fold expansion were measured by flow cytometry.
The cell expansion at the HSPC stage and the NK stage was calculated by dividing the number of suspension cells obtained at the sampling time point by the initial number of iPSCs at the spheroidization stage. The cell number was determined using the Countess™ 2 automated cell counter, and specific operating procedures can be found in the instrument's instructions.

[1] = added to fourth differentiation medium: NAD+, 0.1 ng/mL HLA-C, 1000 IU IL-2 or 15 μM SB203580

IL-2: cytokine additive of the fourth differentiation medium
proportion of CD56+ or CD45+ cells [1]: without affecting
yield of iNK cells [1]: increase
proliferation rate of iNK cells (concentrations and media as in Example 5): increase
